Molecules are shown by their SMILES. Active and inactive are the calls of the source. No cut-off for these calls is given here.

For test [1], the target named is T1, Peroxisome proliferator-activated receptor alpha (Homo sapiens) (UniProt Q07869).
T1 sequence (whole entry): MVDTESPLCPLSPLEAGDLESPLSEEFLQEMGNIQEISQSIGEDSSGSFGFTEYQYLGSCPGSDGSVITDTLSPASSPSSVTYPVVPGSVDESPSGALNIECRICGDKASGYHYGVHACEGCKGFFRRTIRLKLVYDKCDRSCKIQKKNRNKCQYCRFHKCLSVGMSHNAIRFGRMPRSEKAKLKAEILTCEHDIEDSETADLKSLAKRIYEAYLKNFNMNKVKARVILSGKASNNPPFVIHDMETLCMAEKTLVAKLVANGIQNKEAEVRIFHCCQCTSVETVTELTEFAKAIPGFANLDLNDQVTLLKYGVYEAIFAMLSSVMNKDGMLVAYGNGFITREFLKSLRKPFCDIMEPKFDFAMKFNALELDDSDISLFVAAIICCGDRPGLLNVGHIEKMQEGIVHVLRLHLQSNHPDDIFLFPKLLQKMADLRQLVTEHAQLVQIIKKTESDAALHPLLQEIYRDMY
The test is described as follows: Agonist activity at human PPARalpha at 5 uM after 22 to 24 hrs by luciferase reporter gene assay. Summed up:
(§1)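 hPPARα luciferase reporter cells; read-out via oxyluciferin production. Single-concentration screen at 5 and 50 μM; GW590735 control at 5 and 10 μM. Fold-induction over DMSO control ± S.E. (n = 3), single experiment.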

Test [2] addresses T1, Peroxisome proliferator-activated receptor alpha (Homo sapiens). The test is described as follows: Agonist activity at human PPARalpha at 10 uM after 22 to 24 hrs by luciferase reporter gene assay. In outline:
as §1
In general terms: Reporter assays use an easily measured gene product as a stand-in for the process of interest.

Regarding `COc1ccc(COc2ccc(CNc3cccc(C(=O)O)c3)cc2)cc1`, the outcome in test [1] and in test [2] was Active.

These data come from ChEMBL document CHEMBL4229390, “Structure-guided evolution of a 2-phenyl-4-carboxyquinoline chemotype into PPARα selective agonists: New leads for oculovascular conditions” (Bioorg Med Chem Lett, 2018).
